# Experimental data taken from patent US20080262037A1, “Piperidine Derivatives for the Treatment of Chemokine Mediated Disease” (ASTRAZENECA AB, priority 2004, published 2008).
# Amino acid sequences for entries named in this document (tags omitted).
# UniProt P35367, whole entry: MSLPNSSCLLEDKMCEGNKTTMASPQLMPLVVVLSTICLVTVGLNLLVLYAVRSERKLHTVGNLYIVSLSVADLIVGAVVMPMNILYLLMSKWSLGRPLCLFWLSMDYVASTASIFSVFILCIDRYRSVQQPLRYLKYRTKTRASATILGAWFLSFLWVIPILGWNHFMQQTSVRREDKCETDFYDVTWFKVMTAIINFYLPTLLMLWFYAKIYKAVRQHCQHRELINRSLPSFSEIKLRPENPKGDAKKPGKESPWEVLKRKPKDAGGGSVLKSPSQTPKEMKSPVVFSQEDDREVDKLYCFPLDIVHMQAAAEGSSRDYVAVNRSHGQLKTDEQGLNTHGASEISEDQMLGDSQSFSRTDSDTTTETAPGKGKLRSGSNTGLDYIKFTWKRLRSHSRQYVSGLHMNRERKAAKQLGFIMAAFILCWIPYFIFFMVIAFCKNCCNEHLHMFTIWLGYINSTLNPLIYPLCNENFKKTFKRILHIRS
# Target: T1, human H1 receptor (Homo sapiens, UniProt P35367)
# T1 construct: purchased Euroscreen SA, Brussels, Belgium ES-390-M; host or cells: CHO-K1 cells (membranes)
# Assay: Histamine H1 receptor binding, competition displacement of [3H]-pyrilamine
# Details: displacement of 1 nM [3H]-pyrilamine; membranes from recombinant CHO-K1 cells expressing the human H1 receptor; 1 hour at room temperature
substance,measurement,value
"[2-(4-{[4-(3,4-dichlorophenoxy)piperidin-1-yl]methyl}piperidin-1-yl)-4-methylphenoxy]acetic acid acetate [Example 43]",H1 pKi/[1328_S],7.8
